Reference: patent US10053498B2, “Compositions comprising serum albumin and p53 peptides fusion proteins” (University of the Sciences of Philadelphia, priority 2014, dated 2018)

Protein sequences, listed by entry. Tags and fused reporters are not part of them.
UniProt Q07817, whole entry: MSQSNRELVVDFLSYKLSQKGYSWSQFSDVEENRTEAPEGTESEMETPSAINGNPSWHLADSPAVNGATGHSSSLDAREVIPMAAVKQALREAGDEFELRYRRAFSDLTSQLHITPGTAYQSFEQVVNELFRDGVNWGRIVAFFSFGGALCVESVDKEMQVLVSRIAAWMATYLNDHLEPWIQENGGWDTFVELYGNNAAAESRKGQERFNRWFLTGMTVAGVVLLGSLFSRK
UniProt Q07820, whole entry: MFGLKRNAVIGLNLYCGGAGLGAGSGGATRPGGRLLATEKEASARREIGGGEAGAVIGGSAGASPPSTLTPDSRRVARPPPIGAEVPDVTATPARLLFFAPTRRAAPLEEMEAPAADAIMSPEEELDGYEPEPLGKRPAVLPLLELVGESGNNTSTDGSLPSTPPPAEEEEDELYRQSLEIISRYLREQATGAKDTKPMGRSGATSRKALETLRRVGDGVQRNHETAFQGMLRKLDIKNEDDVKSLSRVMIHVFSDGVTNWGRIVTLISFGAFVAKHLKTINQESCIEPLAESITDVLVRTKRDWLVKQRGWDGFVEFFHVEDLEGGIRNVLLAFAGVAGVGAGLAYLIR

Experiments:
SJSA-1 cells [1] = assay: Confocal microscopy of cellular uptake of FITC-labeled rHSA proteins and rHSA/FA-FITC complexes; format: cell-based; settings: 5 μM FITC-labeled protein; for uptake into SJSA-1 cells: 1% FBS, 24 hours
Experimental: On day 1, SJSA-1 cells were seeded in 6-well plates, at a density of 80,000 cells per well, and allowed to attach overnight. Treatment media containing 1% FBS plus 5 μM FITC-labeled rHSA (FITC-rHSA), FITC-rHSA-P53i or FITC-rHSA-PMI was added to wells on day 2 and allowed to incubate for 24 hours. For experiments to examine the internalization activity of FA-FITC-modified rHSA, SJSA-1 cells were plated as described above. On day 2, rHSA fusion proteins (dissolved in 1×PBS) were incubated with FA-FITC at a 1:2 molar ratio (rHSA:FA-FITC; 5 μM:10 μM) to allow formation of rHSA/FA-FITC complexes. Reactions were conducted in PBS at room temperature for 30 minutes, prior to dilution in RPMI media (without FBS) and addition to wells. Following a 24 hour incubation period, cells were trypsinized, re-plated onto coverslips and allowed to re-attach for 2 hours. Upon re-attachment, cells were washed 3× with PBS and maintained in phenol red-free media. For visualization, imaging was performed using a Nikon TiE (Eclipse) confocal microscope with a CSU-X spinning disk confocal scan head (Yokogawa), a linear encoded x, y robotic stage (ASI Technologies, Inc.), equipped with a multi-bandpass dichromatic mirror and bandpass filters (Chroma Technology Corp.) in an electronic filter wheel for selection of FITC. 488 nm laser illumination was provided by a 50 mW monolithic laser combiner (MLC400, Agilent Technologies) and images were acquired using a 60×1.40 NA objective and the Clara interline CCD camera (Andor Technology).

SJSA-1 cells [2] = assay: CyQuant cytotoxicity assay in SJSA-1 cells; format: cell-based
Experimental: Osteosarcoma SJSA-1 cells (ATCC) were grown in RPMI media containing 10% FBS. Cytotoxicity assays were performed using SJSA-1 cells plated in 24- or 96-well plates at 20,000 or 5,000 cells per well, respectively. Cells were allowed to attach overnight. All treatments were added on day 2 in RPMI media containing 1% FBS plus the equivalent amounts of 1×PBS buffer. Unless otherwise indicated, cells were exposed to treatment media for 24 hours, at which time cytotoxicity was measured using the fluorometric CyQuant assay (Invitrogen, C35006) or the fluorometric Homogeneous Caspase assay (Roche, 03005372001), according to the manufacturer's instructions, for detection of apoptosis. All results were plotted relative to rHSA- or where indicated, rHSA/FA-FITC-treated cells.

p53 = assay: Western blot and densitometry of p53 protein in SJSA-1 cells; format: cell-based; settings: 10 μM, 24 hrs, densitometry (FIG. 5 legend)
Experimental: (§1) SJSA-1 cells were lysed in buffer containing 20 mM Tris-HCl, 50 mM NaCl, 0.05% Triton X-100, and protease inhibitor cocktail. […] Mixtures were then allowed to incubate for 1 hour at RT.

MDM2 = assay: Western blot and densitometry of MDM2 protein in SJSA-1 cells; format: cell-based; settings: 10 μM, 24 hrs, densitometry
Experimental: as §1

[3] = Gel shift assay of rHSA/FA-FITC complex formation; format: binding; settings: compared among rHSA, rHSA-P53i and rHSA-PMI (FIG. 6A)
Experimental: All recombinant albumins were defatted following a previous publication. FA-FITC was synthesized by mixing 1× 1-Hexadecylamine and 2× N,N-Diisopropylethylamine (Sigma) followed by addition of 1×NHS-Fluorescein (Thermo Scientific). This reaction was carried out overnight, protected from light. Products were then purified by HPLC and identified by MS. For experiments designed to detect FA/HSA complex formation, rHSA (30 pmol, dissolved in 1×PBS) was incubated with or without FA-FITC at desired molar ratios and then separated by 0.5×TBS PAGE. Due to the incorporation of fluorescent molecules, HSA bound by FA-FITC in gel can be visualized under UV. Assays to determine the degree of displacement of FA-FITC were performed by adding an excess amount of unlabeled FA to pre-formed rHSA/FA-FITC complexes, at the indicated molar ratios. Reactions were conducted in PBS containing 10% glycerol at room temperature for 30 minutes. The products were separated using non-denaturing 0.5×TBS PAGE and then visualized under 305 nm UV. Experiments to determine the effect of the presence of serum on HSA/FA complexes were conducted using pre-formed biotin-rHSA/FA-FITC complexes. […] Next, samples were centrifuged to pull down biotin-HSA/FA-FITC and a portion of each supernatant was analyzed using 0.5×TBS PAGE as above.

[4] = test system: mitochondria in SJSA-1 and Hela cells; assay: Mitochondrial co-localization by fluorescence microscopy; format: cell-based; settings: 5 μM FITC-labeled protein
Experimental: Mitochondrial and nuclear staining was performed using MitoTracker Deep Red (red) and Hoechst 33342 (blue), and the cells were then subjected to immunofluorescence microscopy. […] This may be consistent with localization of serum albumin with lysosomal system or secretory apparatus as has been previously seen (Yokota and Fahimi, Proceedings of National Academy of Sciences of the United States of America, 78: 4970-4974, 1981; Baghdiguian et al., Cancer Letters 101179-84, 1996). Despite efficient rHSA uptake in all conditions, mitochondrial co-localization was not observed in cells treated with rHSA (A and C).

MDA-MB-231 cells = assay: CyQuant cytotoxicity assay in MDA-MB-231 cells; format: cell-based; settings: 24 hrs, relative to rHSA-treated cells; nutlin 10 μM, ABT-263 2.5 μM (FIG. 13)
Hela cells = assay: CyQuant cytotoxicity assay in Hela cells; format: cell-based; settings: 24 hrs, relative to rHSA-treated cells; nutlin 10 μM, ABT-263 2.5 μM (FIG. 13)
cytochrome C = settings: increasing amounts, Hela, SJSA-1 and MDA-MB-231 cells
Bcl-xL = Bcl-xL (Homo sapiens, UniProt Q07817); settings: MDA-MB-231, SJSA-1 or Hela whole cell lysates
Mcl-1 = Mcl-1 (Homo sapiens, UniProt Q07820); settings: MDA-MB-231, SJSA-1 or Hela whole cell lysates

Row | binding to Bcl-xL (pull-down) (Bcl-xL) | binding to Mcl-1 (pull-down) (Mcl-1) | Substance | uptake into SJSA-1 cells (SJSA-1 cells [1]) | uptake compared to rHSA (FITC staining of vesicular cargo) (SJSA-1 cells [1]; 24-hour incubation) | cell death (SJSA-1 cells [2]; 24-hour treatment, relative to 10 μM rHSA-treated cells (FIG. 4A)) | cell death in SJSA-1 cells (p53 positive) (SJSA-1 cells [2]; 24 hrs, relative to rHSA-treated cells, nutlin 10 μM (FIG. 13)) | p53 accumulation above control wells (p53) | change in MDM2 protein expression (MDM2) | degree of FA binding [3] | co-localization with mitochondria [4] | cell death in MDA-MB-231 cells (p53 negative) (MDA-MB-231 cells) | cell death in Hela cells (p53 under-expressing) (Hela cells) | amount of cytochrome C in the cytoplasmic fraction (cytochrome C)
1 |  |  | rHSA-P53i: recombinant HSA fused at its C-terminal, via a DEVDG caspase cleavage linker, to wild type p53 peptide ETFSDLWKLLPE (SEQ ID NO: 1) | taken up | significantly greater uptake | approximately 60% | induced cell death | 1.5 orders of magnitude | 1.1 fold | similar | efficiently co-localized | induced cell death | induced cell death | increased in the cytoplasmic fraction in a dose dependent manner
2 | but not | but not | rHSA: recombinant human serum albumin without fused peptide, used as control protein | taken up |  |  |  |  |  | similar | not observed |  |  | 
